Values quoted from earlier work as cited in US9539337B2, “Compositions comprising two different populations of polymer-active agent conjugates” (priority 2003, dated 2017).

Conditions: relative to native interferon alpha-2a

Substance: PEGASYS: PEGASYS brand PEGylated interferon alpha-2a (Hoffmann-La Roche)
- in vitro activity in comparison with the native form of this interferon: about 7%
